The values that follow come from patent publication US20240350650A1, “LINKER AND CONJUGATE THEREFOR” (BEIJING HOPE PHARMACEUTICAL CO.LTD., priority 2021, published 2024).

For assay [1], the system named is human breast cancer BT474 model. Nature of the assay: In vivo tumor inhibition, subcutaneous xenograft in mice. Also noted: species or system Mus Musculus. Particulars: single tail vein dose, Herceptin 10 mg/kg, Tr-1b 5, 10, 15 mg/kg, FIG. 12. The protocol:
Mice: female nude mice of 6-9 weeks old (species: Mus Musculus, CB-17 SCID; SpePharm (Beijing) Biotechnology Co., Ltd.) for experiments.
(§1) Measurement and calculation of tumor volume:
(§2) The tumor volume (mm^3) was calculated by measuring the long diameter and short diameter of the tumor twice a week with calipers.
Calculation formula: tumor volume (mm^3)=0.52×length diameter (mm)×[short diameter (mm)]^2

For assay [2], the system named is human gastric cancer cell NCI-N87 model. The assay is described as follows: In vivo tumor inhibition, subcutaneous xenograft in nude mice. The arrangement: species or system Mus Musculus. The following applies: single tail vein dose, Herceptin 10 mg/kg, Tr-1b 1, 2, 4 mg/kg, FIG. 11. The protocol:
Mice: female nude mice of 6-8 weeks old (species: Mus Musculus, BALB/c nude; SpePharm (Beijing) Biotechnology Co., Ltd.) for experiments.
as §1, §2

The subject of a further assay is NCI-N87 cells. Nature of the assay: Endocytosis test (fluorescence density, endocytosis rate). The class given is cell-based, human.
A further assay deals with SK-BR-3 cells. The description is as above. In kind it is cell-based, human.
The next assay deals with NCI-N87. The assay is described as follows: Cell proliferation inhibition test (CTG, 6 days). In kind it is cell-based, human. Particulars: 6 days after dosing. The protocol:
(§3) Test samples: Ab1: DS-8201 (Enhertu, fam-trastuzumab deruxtecan-nxki); Ab2: antibody-drug conjugate Tr-1b.
(§4) Viability assay: The resuscitated cells were cultured for 6 days after dosing, cell proliferation results were detected, and IC50 values were calculated. […]
(§5) The data were analyzed using software GraphPad Prism 7.0, and fitted by the nonlinear S-curve regression to obtain a dose-effect curve, based on which the IC50 value was calculated.

The test system of another assay is SK-BR-3. The assay is described as follows: Cell proliferation inhibition test (CTG, 6 days). The class given is cell-based, human. Particulars: 6 days after dosing. The procedure: as §3, §4, §5

For trastuzumab [Herceptin], the “tumor inhibition effect (tumor volume, in words)” value in assay [1] and in assay [2] was “inhibitory effect against tumor proliferation” throughout. Also, the “fluorescence density for endocytosis, 37° C. 0 h” value is given as 23.7 in the assay on NCI-N87 cells (37° C. 0 h) and 12.7 in the assay on SK-BR-3 cells (37° C. 0 h). Also, the “Endocytosis rate (%) 37° C. 0.5 h” value is reported as 2.34% in the assay on NCI-N87 cells (37° C. 0.5 h) and 3.74% in the assay with SK-BR-3 cells (37° C. 0.5 h). Besides, the “fluorescence density for endocytosis, 37° C. 0.5 h” value in the assay on NCI-N87 cells (37° C. 0.5 h) is on record as 41.3; in the assay with SK-BR-3 cells (37° C. 0.5 h), 26.3. Moreover, the “Endocytosis rate (%) 37° C. 1 h” value in the assay on NCI-N87 cells (37° C. 1 h) is on record as 8.39%; in the assay with SK-BR-3 cells (37° C. 1 h), 6.37%. For the same substance, the “fluorescence density for endocytosis, 37° C. 1 h” value was 86.8 in the assay on NCI-N87 cells (37° C. 1 h) and 35.9 with SK-BR-3 cells (37° C. 1 h). The results for the “Endocytosis rate (%) 37° C. 2 h” value in the assay with NCI-N87 cells (37° C. 2 h) and in the assay with SK-BR-3 cells (37° C. 2 h) were 9.34% and 23.71%, respectively. Moreover, the “fluorescence density for endocytosis, Binding Control Group” value in the assay with NCI-N87 cells (binding control group) is reported as 763; in the assay with SK-BR-3 cells (binding control group) it was 384. For the same substance, the “IC50 (ng/ml) NCI-N87” value in the assay on NCI-N87 was found to be 30.96 ng/mL. For the same substance, the “IC50 (ng/ml) SK-BR-3” value in the assay with SK-BR-3 was 30.51 ng/mL.
